Assay results published in patent US10143748B2, “B-cell reduction using CD37-specific and CD20-specific binding molecules” (Emergent Product Development Seattle, LLC, priority 2005, dated 2018).

Test system: BJAB cells
Assay: Annexin V/PI apoptosis analysis, BJAB
Type: cell-based
Conditions: in the presence of crosslinking, Ramos, Daudi, Table 2

TRU-015: recombinant (murine/human) single chain protein that binds to the CD20 antigen; SEQ ID NO: 4
effect on apoptosis of cell lines: induce some apoptosis
